Target: human 11β-HSD1 (Homo sapiens, UniProt P28845)
Assay: HTRF assay, human 11β-HSD1
Assay type: biochemical

The chains behind the UniProt entries cited, without tags or fusion partners. Where a name states a change or a piece, a line headed by the entry shows the natural chain unless it says otherwise.
UniProt P28845: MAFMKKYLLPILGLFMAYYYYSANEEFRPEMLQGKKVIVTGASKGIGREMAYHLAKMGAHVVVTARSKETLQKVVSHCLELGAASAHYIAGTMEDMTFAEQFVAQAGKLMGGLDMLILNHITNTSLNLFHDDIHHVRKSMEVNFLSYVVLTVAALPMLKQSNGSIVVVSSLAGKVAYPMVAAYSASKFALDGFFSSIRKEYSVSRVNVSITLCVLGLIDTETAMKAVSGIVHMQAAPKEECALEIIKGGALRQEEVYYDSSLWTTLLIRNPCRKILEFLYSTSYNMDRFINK

With `CC1(C)[C@@H](OC(=O)CCC(=O)O)CC[C@]2(C)[C@H]3C(=O)C=C4[C@@H]5C[C@@](C)(C(=O)O)CC[C@]5(C)CC[C@@]4(C)[C@]3(C)CC[C@@H]12` the IC50 was 15.9 µM.

From US10039772B2, “Methods and compositions for treating alcohol use disorders” (priority 2015, dated 2018)
